Earlier results in US20220000880A1, “METHOD AND COMPOSITION EMBODIMENTS FOR TREATING ACUTE MYELOID LEUKEMIA” (Rigel Pharmaceuticals, Inc., priority 2018, published 2022).

Tested on: FLT3-ITD positive AML patients
Settings: FLT3-ITD positive AML patients relapsed after stem cell transplantation or after failure of salvage chemotherapy; cited from earlier work

For `CC(C)(C)c1cc(NC(=O)Nc2ccc(-c3cn4c(n3)sc3cc(OCCN5CCOCC5)ccc34)cc2)no1` [quizartinib], the overall survival is given as “significantly improved overall survival”.
